## Apparent affinities of Ab-95 variants for a coronavirus HR2 peptide

From the AlphaSeq antibody data of Engelhart et al. 2022 (doi:10.1038/s41597-022-01779-4), copy in the FLAb collection.

Binding partner: SARS-CoV-2 spike HR2 peptide, sequence PDVDLGDISGINAS.

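The parent was found by panning a naive human phage display library on the peptide. Variants in AAYL52 differ from the parent at up to three CDR positions; double and triple changes were sampled at random. The assay is AlphaSeq: two haploid yeast populations carry antibody and antigen on their surface. The frequency of each diploid, read from paired DNA barcodes, reflects how well the two displayed proteins bind. Read counts were normalised to the haploid input and turned into Kd by a linear fit to BCL2-family pairs of known affinity, for each replicate. Mating was done three times.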

Parent: Ab-95, a human scFv built as VH, a 15-residue (Gly4Ser)3 linker, VL. Only the CDRs of the light chain vary.
VH: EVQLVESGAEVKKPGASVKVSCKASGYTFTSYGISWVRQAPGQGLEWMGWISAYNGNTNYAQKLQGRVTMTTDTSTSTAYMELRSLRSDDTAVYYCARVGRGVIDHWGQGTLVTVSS
VL: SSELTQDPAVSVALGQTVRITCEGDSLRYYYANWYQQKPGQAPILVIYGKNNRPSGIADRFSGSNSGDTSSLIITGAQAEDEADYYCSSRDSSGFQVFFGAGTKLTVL

The parent's light chain CDRs are EGDSLRYYYAN, GKNNRPS, SSRDSSGFQVF; each variant's own CDRs replace them letter for letter. The read-out is the apparent dissociation constant on a log10 scale (nM): the lower, the stronger. The mean shown is taken over the replicates in which the pair was detected. Where no diploid with the target was found in any replicate, the entry reads "no signal": below detection, most likely a poor binder, though not proof of it. Three control strains display no target. For library AAYL52, 28% of the pairings with them gave a signal, with a median of 3.91 and one signal in twenty below 2.90, so weak values seen in few replicates may be background. For each scFv, signals with the empty controls are counted beside the result. Parent in this assay: reference entry 2.31, copy in this library 2.25.

CDR-L1	CDR-L2	CDR-L3	mean, log10 nM	replicates with signal	control signals
EGYSLRYYYAN	GKNNRPS	SSRDSDGFQMF	3.98	3/3	1/9
EGDSLRCYYAD	GKNNRPS	SSRDMSGFQVF	3.97	2/3	1/9
EGDSLRYYDAN	IKNNRPS	SSRDSSGFQVL	no signal	0/3	2/9
EGDSLRYYYAP	GKPNRPS	SSRDPSGFQVF	4.80	3/3	3/9
ERDSLRYYYAN	GSNNRPK	SSRDSSGFQVF	3.63	3/3	3/9
EGDSLRYYYAN	GKNPQPS	SSRDSSGFQVV	3.85	1/3	1/9
CGDNLRYYYAN	GSNNRPS	SSRDSSGFQVF	4.85	1/3	3/9
EDDSLRYYYAN	GKNVRPS	SSRDSSGFQVF	3.36	3/3	3/9
EDDSLRYYYAN	KKMNRPS	SSRDSSGFQVF	3.91	2/3	3/9
EGDLLRYYYAN	GKNNRPS	SSRDSSGFTVF	4.85	1/3	1/9
EGDSLRYYYAN	GKNNMPS	SKRDSSSFQVF	3.65	2/3	3/9
EGDSLRNYYAT	GKNNRPS	SSRFSSGFQVF	4.80	3/3	3/9
EGDSLRYYYAQ	GKNNRPS	SSRDSSGFQVV	3.76	1/3	1/9
EGDQLRYYYAN	GKNNRPS	SSRKSMGFQVF	4.83	1/3	0/9
EGDSLRYYYQN	GKNNRPS	FSRVSSGFQVF	4.38	2/3	3/9
EGDSLRYYYAP	GKNDRPS	SSRDSSGFQVE	no signal	0/3	1/9
EGDSLRYGYAN	GKNNRPS	SSRDPSGIQVF	2.66	3/3	0/9
EGDSLRYYYAH	SKNNRPS	SSRDSSGFQHF	5.56	1/3	0/9
EGDSLIVYYAN	GKNNRPS	SSRDSSGFQVF	no signal	0/3	0/9
EGDSLRYCYAN	GKNNRPS	SSRDSSVGQVF	no signal	0/3	3/9
KGASLRPYYAN	GKNNRPS	SSRDSSGFQVF	2.58	3/3	5/9
TGDSLRYYYAN	GKYNRHS	SSRDSSGFQVF	3.55	2/3	4/9
EGDSLTYYYGN	GKNNRPS	SSRDSSGFQYF	no signal	0/3	2/9
EGDSLRYYYAN	GSNNRPS	SSRDSSTTQVF	3.30	3/3	3/9
EGDSLRYYYAN	GKNNRPS	SSRTSHGWQVF	3.05	1/3	0/9
EGDSLRYYYAN	GKNNRPS	SSFDSQSFQVF	2.65	3/3	3/9
EGKSLRYCYAN	GKNNRPS	SCRDSSGFQVF	1.37	3/3	5/9
EGDSLGYYYAN	WKNGRPS	SSRDSSGFQVF	3.56	3/3	4/9
EGDDLRYYYAN	GKNNRSS	QSRDSSGFQVF	4.35	1/3	2/9
EGDSLRYYYAW	GKNNRPS	MSRDSSGFNVF	3.49	1/3	1/9
EDDSLRYYYAN	GKNNRPT	SSRDSSGFQHF	3.40	2/3	1/9
QGDSLRYYYAN	GKNNRPS	NSRDVSGFQVF	1.74	3/3	1/9
EHESLRYYYAN	GKNNRPS	SSRDSSGFQVF	2.56	3/3	3/9
EKDSLRYYYAN	GKNNLPS	SSRDSSNFQVF	4.08	2/3	4/9
EGDSLRYYYAN	GKNQRPE	SSRDASGFQVF	1.72	3/3	1/9
EGDSLRYYYAN	GKNNRPS	MSRDSSGFQAF	3.29	3/3	4/9
EGDSLRYYYAN	AKNNRPI	SSRDSSGFMVF	4.41	2/3	3/9
EGDSLRYYYAP	GKNNIPS	SSRDSSGFQVF	3.17	3/3	4/9
EGDSLRYYYKN	GKNNRPS	SLRDSSAFQVF	4.45	2/3	3/9
EGDSLRYYYAN	RFNNRPS	SSRVSSGFQVF	3.69	1/3	6/9
EGDDLRYYYAN	GKNNRPS	SSRDSYGFAVF	3.81	3/3	4/9
EGRSLRYYVAN	GKNNRPS	SSRDQSGFQVF	2.82	3/3	4/9
EGDSLFFYYAN	GKNNRPS	SSRDSSGFQVY	no signal	0/3	1/9
EGDSWRYYYAS	GKNNRPS	SSRDSYGFQVF	no signal	0/3	2/9
EGDSTRYYYAN	GKNNRPS	SCRDSTGFQVF	2.36	3/3	3/9
ENDSLRYYYAN	GKCNRPS	SSRDSSGFQVF	no signal	0/3	2/9
EGDSLRYYYAN	GKNNRPW	SSPDSSGFQVF	3.07	1/3	4/9
EGDCLRYYYAN	GKNNRPS	SSRDQSGFQVF	2.25	3/3	5/9
EGDSLRYYYAN	GKNNSPS	SSRDSSDFQVF	4.08	3/3	1/9
EGDSQRYYYAN	GKNNRPS	SSRDSSGLQPF	4.09	3/3	2/9
EGDSLRYYYPM	GKNNRPS	SSRKSSGFQVF	3.49	3/3	3/9
EGDSLRYYNAN	GKNNRPS	CSRRSSGFQVF	4.23	1/3	3/9
EGDSLRYYYAN	GKNNRPS	SSRSSDGFQVF	3.04	2/3	1/9
EGDSLRAYYAN	GKENRPS	SCRDSSGFQVF	2.27	3/3	2/9
EGDSLRYYYAN	GKNLRPS	SSADSSGGQVF	no signal	0/3	2/9
EGDALRYYYAN	RKNNRPS	SSRDNSGFQVF	5.41	1/3	3/9
EGDSLRYYYQN	MKNNRPS	SGRDSSGFQVF	3.62	3/3	5/9
EGFSLRYYIAN	GKNNRPS	STRDSSGFQVF	4.19	1/3	3/9
EGDSLRYYYAN	LKNNRPP	SSRDSSGFQVW	2.51	1/3	1/9
EGDSLRDYYAN	GKNNRPS	SSRDSEGFQVF	2.51	3/3	4/9
RGDSLRYYYAN	GKNNRPS	SSRDSSYFQVS	3.87	3/3	8/9
EGDSLRYYYAN	GLRNRPS	SSRDSSGCQVF	3.68	1/3	3/9
EQDSLRYYYHN	GKNNRPS	SSRDSSGMQVF	4.58	1/3	1/9
EYDSLRYYYAN	IKNNSPS	SSRDSSGFQVF	4.21	1/3	4/9
EGDSLRYYYAN	GKNCRPS	SSRDSTGFQVH	4.32	3/3	2/9
EGDILRPYYAN	GKNNLPS	SSRDSSGFQVF	no signal	0/3	2/9
SGDSLRYYYAN	GKNNRDS	SSRDSSGFQVF	1.83	3/3	2/9
EGDSLRVYYAN	GKNNRHS	SGRDSSGFQVF	3.24	2/3	4/9

Picked from the list: the 4 lowest averages where every replicate gave a value.

CDR-L1	CDR-L2	CDR-L3	mean, log10 nM	replicates with signal	control signals
EGKSLRYCYAN	GKNNRPS	SCRDSSGFQVF	1.37	3/3	5/9
EGDSLRYYYAN	GKNQRPE	SSRDASGFQVF	1.72	3/3	1/9
QGDSLRYYYAN	GKNNRPS	NSRDVSGFQVF	1.74	3/3	1/9
SGDSLRYYYAN	GKNNRDS	SSRDSSGFQVF	1.83	3/3	2/9